Results on 1 substance are retold here after patent publication US9995740B2, “Method of determining temperature and method of detecting a target peptide” (SYSMEX CORPORATION, priority 2015, dated 2018).

A short description of this data set: Isoelectric point (pI) of the peptides of Table 3. It counts as physicochemical.

In turn, “RSA21: SEQ ID NO: 3, 18 amino acid residues (RLIEDICLPRWGCLWEDD; Synthetic sequence of RSA21)” showed a pI of 4.1.
